Literature values, collected in US7825126B2 (The United States of America as represented by the …, priority 2004, dated 2010).

The chains behind the UniProt entries cited, without tags or fusion partners.
UniProt P0DMS8, whole entry: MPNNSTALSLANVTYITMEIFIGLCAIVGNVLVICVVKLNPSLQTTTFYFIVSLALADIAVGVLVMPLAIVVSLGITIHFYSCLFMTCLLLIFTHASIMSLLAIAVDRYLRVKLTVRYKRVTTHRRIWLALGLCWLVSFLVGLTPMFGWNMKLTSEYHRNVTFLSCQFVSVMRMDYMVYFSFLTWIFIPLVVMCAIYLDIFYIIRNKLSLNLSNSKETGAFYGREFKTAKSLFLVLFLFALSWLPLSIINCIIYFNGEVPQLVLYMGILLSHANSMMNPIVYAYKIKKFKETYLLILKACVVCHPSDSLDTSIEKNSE

Target: human A3 adenosine receptor (Homo sapiens, UniProt P0DMS8)
Set-up: expressed in transfected cells; host or cells: CHO cells
Conditions: relative to 10 μM Cl-IB-MECA, data from literature (footnotes c, d, e, f); cited from earlier work

Question: For `CNc1ncnc2c1ncn2C1OC(CO)C(O)C1O` (stereo not shown) [Compound 6], which “% Activation (hA3AR) at 10 μM” value is on record?
Answer: 96 ± 3%
